In this test the target is Panitumumab kappa light chain (wild-type) (human). Kind of test: LCMS of Fabs cleaved from IgG; 2 HC + 2 LC co-expressed in HEK293.

“And” between values parts separate entries of the source, which are not always exact repeats. Identical values can stand only once.

Take “Panitumumab heavy chain, wild-type CH1 (from UniProt P01857 1-112)”: the % HC1-LC1 product was 35.3% and 47.9%.

These data come from patent US20230265134A1.
